## Measured affinities in a library of Ab-14 heavy chain variants

Values reported by Li et al. 2023, doi:10.1038/s41467-023-39022-2 (FLAb copy).

Binding partner: SARS-CoV-2 spike HR2 peptide, sequence PDVDLGDISGINAS.

Parent: Ab-14, a human scFv built as VH, three GGGGS repeats, VL. Only the CDRs of the heavy chain vary.
VH: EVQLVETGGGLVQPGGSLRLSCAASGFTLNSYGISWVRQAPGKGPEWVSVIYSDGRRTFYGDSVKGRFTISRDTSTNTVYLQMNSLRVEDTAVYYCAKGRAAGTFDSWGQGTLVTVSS
VL: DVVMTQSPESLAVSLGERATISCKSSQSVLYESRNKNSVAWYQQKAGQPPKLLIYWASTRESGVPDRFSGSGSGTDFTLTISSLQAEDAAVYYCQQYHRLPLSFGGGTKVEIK

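The starting antibody came from a phage panning campaign against this peptide. This is the validation round: designs drawn from the data on random variants, tested in the same kind of assay. Group labels follow the data file (En: ensemble of fine-tuned language models; HC: hill climbing; Gen: genetic algorithm; Gibbs: Gibbs sampling; a sequence that several methods proposed may carry one label only). The assay is AlphaSeq: two haploid yeast populations carry antibody and antigen on their surface. After mating in shaken culture at 30 °C for 16 h, diploids were selected and their barcode pairs sequenced. Read counts were normalised to the haploid input and turned into Kd by a linear fit to BCL2-family pairs of known affinity, for each replicate. Mating was done six times.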

Each variant is given by its three heavy chain CDRs, as the data file delimits them; those of the parent are GFTLNSYGIS, VIYSDGRRTFYGDSVK, GRAAGTFDS. Variants here have more than six changes. Each Kd is an estimate from the mating assay, the geometric mean of the replicates in which the pair was seen; lower is stronger. A pair that was not seen in any replicate is written "nd"; this usually means weak binding, but a binder can also be missed. The authors' rule: three or more of the six replicates give a measured affinity, fewer mean a poor binder. Three control strains display no target. For all heavy chain designs, 1% of the pairings with them gave a signal, with a median of 120 nM and one signal in twenty below 7.0 nM, so weak values seen in few replicates may be background. The control count says in how many pairings with the empty strains this scFv gave a signal. The range of this assay differs from that of the first round, and the authors advise against merging the two. Of ten entries with the parent sequence, four were seen in most replicates (averages 2.2 nM to 240 nM), three in one and three in none, so single entries are noisy.

For GFDLNEYGIS | VIYADGKRTAYSDSVK | GEVAGTFVQ [En_HC], the assay gave 110 pM (6 of 6 replicates; controls 0 of 18).
For GFDLNEYGIS | VIYADGQRTAYTDSVK | GENAGTFDL [En_Gen], the assay gave 3.0 nM (5 of 6 replicates; controls 0 of 18).
For GFDLNEYGIS | VIYADGRRTFYTDSVK | GANAGTFDT [En_HC], the assay gave 210 pM (6 of 6 replicates; controls 1 of 18).
For GFDLNEYGIS | VIYADGVRKAYSDSVK | GENAGTFDV [En_Gen], the assay gave 140 pM (6 of 6 replicates; controls 0 of 18).
For GVNLDEYGIS | VIYADGVRQHYADSVK | GTHGDFGVV [En_Gibbs], the assay gave nd (0 of 6 replicates; controls 0 of 18).
For GFDLNEYGIS | VIYADGSRTAYADNVK | GQVAGTFDV [En_Gen], the assay gave 2.3 nM (6 of 6 replicates; controls 1 of 18).
For GFDLNEYGIS | VIYADGMRTFYSDSVK | GEAGGTFDV [En_HC], the assay gave 230 nM (4 of 6 replicates; controls 1 of 18).
For GFDLNEYGIS | VIYADGMRQAYADSVK | GEVAGTFDV [En_Gen], the assay gave 170 pM (6 of 6 replicates; controls 0 of 18).
For GFDLNEYGIS | VIYADGVRKAYSDSVK | GNVAGTFDV [En_Gen], the assay gave 160 pM (6 of 6 replicates; controls 1 of 18).
For GFDLNEYGIS | VIYADGKRTAYSDSVK | GQNAGTFDV [En_Gen], the assay gave 350 pM (6 of 6 replicates; controls 0 of 18).
For GFDIEEMGIS | VIYADGIRQAYKNDVK | GTNVGRFSV [En_Gibbs], the assay gave nd (0 of 6 replicates; controls 0 of 18).
For GFDLDEYGIS | VIYADGRRTAYADDVK | GENAGTFDT [En_Gen], the assay gave 2.9 nM (6 of 6 replicates; controls 0 of 18).
For GFDIEEYGIS | VIYADGRRKAYADSVK | GIDVYGKDV [En_Gibbs], the assay gave nd (0 of 6 replicates; controls 0 of 18).
For GFDLNEYGIS | VIYADGRRTAYADSVK | GKNAGTFNV [En_HC], the assay gave 290 pM (6 of 6 replicates; controls 0 of 18).
For GFDLNEYGIS | VIYADGRRTAYADSVK | GNTAGTFDT [En_Gen], the assay gave 740 pM (6 of 6 replicates; controls 0 of 18).
For GFNLDEYGIS | VIYADGRRTAYADSVK | GNQAGTFDV [En_Gen], the assay gave 50 pM (6 of 6 replicates; controls 0 of 18).
For GFDLNEYGIS | VIYADGRRTFYSDDVK | GEVAGTFDL [En_HC], the assay gave 380 pM (6 of 6 replicates; controls 0 of 18).
For GFDIEEYGIS | VIYADGIRQAYKDDVK | GMNVGRFSV [En_Gibbs], the assay gave nd (0 of 6 replicates; controls 0 of 18).
For GFDLNEYGIS | VIYADGQRTAYSDSVK | GETAGTFDV [En_Gen], the assay gave 95 pM (6 of 6 replicates; controls 0 of 18).
For GFDLNEYGIS | VIYADGRRTFYKDSVK | GEQAGTFDQ [En_HC], the assay gave 930 pM (6 of 6 replicates; controls 0 of 18).
For GFDLNEYGIS | VIYADGKRTAYADDVK | GEVAGTFDI [En_Gen], the assay gave 270 pM (6 of 6 replicates; controls 0 of 18).
For GFDLDEYGIS | VIYADGMRTFYADSVK | GNIAGTFDV [En_HC], the assay gave 140 pM (6 of 6 replicates; controls 0 of 18).
For GFDLNEYGIS | VIYADGVRTSYADSVK | GEVAGTFDT [En_Gen], the assay gave 860 pM (6 of 6 replicates; controls 0 of 18).
For GFNLNEYGIS | VIYADGMRTFYTDSVK | GETAGTFDN [En_HC], the assay gave 910 pM (6 of 6 replicates; controls 0 of 18).
For GFNLNEYGIS | VIYADGRRRAVIDNVK | GLVRFDFDL [En_Gibbs], the assay gave nd (0 of 6 replicates; controls 0 of 18).
For GFDLNEYGIS | VIYADGMRTAYADSVK | GELAGTFDV [En_Gen], the assay gave 360 pM (6 of 6 replicates; controls 0 of 18).
For GFDINEYGIS | VIYADGMRKAYVQNVK | GENSRSVFI [En_Gibbs], the assay gave nd (0 of 6 replicates; controls 0 of 18).
For GFDLNEYGIS | VIYADGSRTAYADSVK | GENAGTFDQ [En_Gen], the assay gave 340 pM (6 of 6 replicates; controls 0 of 18).
For GFDLDEYGIS | VIYADGMRTFYTDSVK | GEAAGTFDV [En_HC], the assay gave 410 pM (6 of 6 replicates; controls 0 of 18).
For GFDINEYGIS | VIYADGMRTAYDNSVK | GQMAGFFIN [En_Gibbs], the assay gave nd (0 of 6 replicates; controls 0 of 18).
For GFDLNEYGIS | VIYADGRRTAYIDSVK | GENAGTFDM [En_HC], the assay gave 1.7 nM (6 of 6 replicates; controls 0 of 18).
For GFDLNEYGIS | VIYADGMRTFYSDSVK | GENAGTFDL [En_Gen], the assay gave 4.8 nM (6 of 6 replicates; controls 0 of 18).
For GFNLNEYGIS | VIYADGMRTFYADSVK | GQVAGTFDM [En_HC], the assay gave 330 pM (6 of 6 replicates; controls 0 of 18).
For GFNLDEYGIS | VIYADGYRRAYAQEVK | GMNSGFGGT [En_Gibbs], the assay gave nd (0 of 6 replicates; controls 0 of 18).
For GFDLNEYGIS | VIYADGRRKFYADDVK | GENAGTFNV [En_HC], the assay gave 170 pM (6 of 6 replicates; controls 0 of 18).
For GFDLNEYGIS | VIYADGRRTFYIDSVK | GTNAGTFDQ [En_HC], the assay gave 140 pM (6 of 6 replicates; controls 1 of 18).
For GFDLNEYGIS | VIYADGLRTAYSDDVK | GENAGTFDV [En_Gen], the assay gave 460 pM (6 of 6 replicates; controls 0 of 18).
For GVNLDEYGIS | VIYADGKRSHYTDKVK | GTFGDFMIV [En_Gibbs], the assay gave nd (0 of 6 replicates; controls 0 of 18).
For GFDLDEYGIS | VIYADGKRTAYADSVK | GNQAGTFDV [En_Gen], the assay gave 560 pM (6 of 6 replicates; controls 0 of 18).
For GFDLNEYGIS | VIYADGRRTFYSDSVK | GTNAGTFDV [En_HC], the assay gave 540 pM (6 of 6 replicates; controls 1 of 18).
For GFDLESYGIS | VIYADGVRTAYADSVK | GNVAGTFDS [En_HC], the assay gave 490 pM (6 of 6 replicates; controls 0 of 18).

The first 5 variants above that were never detected:

CDR-H1,CDR-H2,CDR-H3,group,Kd (apparent),replicates with signal,signal with controls
GVNLDEYGIS,VIYADGVRQHYADSVK,GTHGDFGVV,En_Gibbs,nd,0 of 6,0 of 18
GFDIEEMGIS,VIYADGIRQAYKNDVK,GTNVGRFSV,En_Gibbs,nd,0 of 6,0 of 18
GFDIEEYGIS,VIYADGRRKAYADSVK,GIDVYGKDV,En_Gibbs,nd,0 of 6,0 of 18
GFDIEEYGIS,VIYADGIRQAYKDDVK,GMNVGRFSV,En_Gibbs,nd,0 of 6,0 of 18
GFNLNEYGIS,VIYADGRRRAVIDNVK,GLVRFDFDL,En_Gibbs,nd,0 of 6,0 of 18